Test [1] addresses T1, GCase (Homo sapiens, UniProt P04062).
T1 sequence (P04062 40-536): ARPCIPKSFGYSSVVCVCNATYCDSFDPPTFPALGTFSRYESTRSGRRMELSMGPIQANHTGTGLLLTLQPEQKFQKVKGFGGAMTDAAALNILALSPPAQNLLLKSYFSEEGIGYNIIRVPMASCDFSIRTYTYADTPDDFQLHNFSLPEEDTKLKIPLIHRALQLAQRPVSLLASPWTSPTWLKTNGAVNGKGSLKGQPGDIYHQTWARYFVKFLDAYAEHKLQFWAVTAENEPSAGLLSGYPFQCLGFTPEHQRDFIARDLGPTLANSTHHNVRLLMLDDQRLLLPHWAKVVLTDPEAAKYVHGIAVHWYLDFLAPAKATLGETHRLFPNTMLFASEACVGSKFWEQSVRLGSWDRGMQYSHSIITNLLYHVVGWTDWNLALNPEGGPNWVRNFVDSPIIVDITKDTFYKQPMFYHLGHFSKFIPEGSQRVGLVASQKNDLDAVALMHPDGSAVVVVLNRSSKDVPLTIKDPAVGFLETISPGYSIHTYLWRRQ
Put plainly: GCase activity enhancement (EC50, Emax; Table 2B). The class given is cell-based. The settings on record: hydrochloride.

For test [2], the target named is T2, GCase (Mus musculus, UniProt P17439).
T2 construct: Liver, spleen, lung, and brain tissues were removed; from tissue; host or cells: brain, spleen, liver and lung of wild-type C57BL/6 mice
T2 sequence (P17439 20-515): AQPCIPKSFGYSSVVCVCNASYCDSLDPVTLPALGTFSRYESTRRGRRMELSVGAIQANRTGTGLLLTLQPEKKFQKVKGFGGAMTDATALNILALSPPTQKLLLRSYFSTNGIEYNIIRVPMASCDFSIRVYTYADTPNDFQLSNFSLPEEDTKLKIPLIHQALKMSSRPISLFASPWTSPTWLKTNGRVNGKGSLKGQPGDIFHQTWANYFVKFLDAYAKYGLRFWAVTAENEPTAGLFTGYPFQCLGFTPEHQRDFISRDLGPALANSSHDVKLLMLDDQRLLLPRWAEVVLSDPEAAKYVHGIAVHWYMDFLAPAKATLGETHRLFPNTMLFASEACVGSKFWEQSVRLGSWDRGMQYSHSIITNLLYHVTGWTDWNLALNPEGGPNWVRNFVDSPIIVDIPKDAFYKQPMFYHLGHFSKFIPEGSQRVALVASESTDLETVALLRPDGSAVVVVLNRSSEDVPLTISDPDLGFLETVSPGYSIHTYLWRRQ
The test can be described thus: GCase enhancement in tissues of mice after 2-week oral dosing. In kind it is in vivo, mice (C57BL/6). The settings on record: nine doses over 2 weeks. The method, then: The ability of orally administered test compounds (the hydrochloride salt form of Compound A and Compound B) to elevate GCase levels as compared to reference compound, IFG-tartrate, was assessed in mice. […] Seven animals were used per dose. The dosing solutions were prepared in water. Compounds were administered over 2 weeks as follows: week 1, Mon-Fri (On), Sat-Sun (Off); week 2, Mon-Thu (On); necropsy on Friday. Thus, a total of 9 doses (dosing solutions prepared fresh every day) were given to each mouse, with a 24-hour washout between the last dose and necropsy.
Plasma was collected by spinning blood at 2700 g for 10 minutes at 4° C. Liver, spleen, lung, and brain tissues were removed, washed in cold PBS, blotted dry, flash frozen on dry ice, and stored at −80° C. until analysis. GCase levels were measured by homogenizing approximately 50 mg tissue in 500 μl McIlvane (MI) buffer (100 mM sodium citrate, 200 mM sodium phosphate dibasic, 0.25% sodium taurocholate, and 0.1% Triton X-100, pH 5.2) at pH 5.2 for 3-5 seconds on ice with a micro homogenizer. Homogenates were then incubated at room temperature without and with 2.5 mM conduritol-B-epoxide (CBE) for 30 min. Finally, 3.7 mM 4-methylumbeliferryl-β-glucoside (4-MUG) substrate was added and incubated at 37° C. for 60 min. Reactions were stopped by addition of 0.4 M glycine, pH 10.6. Fluorescence was measured on a plate reader for 1 sec/well using 355 nm excitation and 460 nm emission. Total protein was determined in lysates using the MicroBCA kit according to the manufacturer's instructions. A 4-methylumbelliferone (4-MU) standard curve ranging from 1.0 nM to 50 μM was run in parallel for conversion of raw fluorescence data to absolute GCase activity (in the presence and absence of CBE) and expressed as nanomoles of 4-MU released per milligram of protein per hour (nmol/mg protein/hr). GCase levels and protein levels were calculated using Microsoft Excel (Redmond, Wash.) and GraphPad Prism version 4.02.

Two compounds from US20100261753A1, “METHODS FOR PREVENTING AND/OR TREATING DEGENERATIVE DISORDERS OF THE CENTRAL NERVOUS SYSTEM” (AMICUS THERAPEUTICS, INC., priority 2009, published 2010) can be followed below.

A word on the Emax: it is the size of the effect at its maximum, as opposed to the concentration needed.

As for `Cl.O[C@@H]1[C@@H](CF)CNC[C@H]1O` [Compound A-HCl, (3R,4R,5R)-5-(fluoromethyl)piperidine-3,4-diol hydrochloride], the values for the Emax at GCase [1] and at GCase [1] (listed as Compound A-HCl*) were 96.8 ± 7.7% and 104 ± 4.58%, respectively.

For the compound `O[C@@H]1CNCC(CF)[C@H]1O` (stereo in doubt) [Compound A, (3R,4R,5R)-5-(fluoromethyl)piperidine-3,4-diol], the “GCase increase (-fold)” value on GCase [2] (brain, 10 mg/kg p.o., Table 3A) is recorded as 2.5 -fold; on GCase [2] (brain, 100 mg/kg p.o., Table 3A), 3.5 -fold; on GCase [2] (spleen, 10 mg/kg p.o., Table 3B) it was 1.9 -fold; at GCase [2] (spleen, 100 mg/kg p.o., Table 3B), 2.8 -fold.
